Data set [1] in a line: Protein binding in Sprague-Dawley rat plasma. It counts as ADME, cell-free. To be noted: read-out: PPB (converted).
The species entered for data set [2] is Homo sapiens. In words: Protein binding in human plasma. To be noted: read-out: PPB (converted).

Regarding `CN1CCCCC1c1nc(O)c(O)c(C(=O)NCc2ccc(F)cc2)n1` (centres undefined), the fraction unbound in data set [1] and in data set [2] was 0.05 throughout. As for `CN1C[C@H](F)C[C@H]1c1nc(C(=O)NCc2ccc(F)cc2)c(O)c(=O)n1C`, in data set [2], the fraction unbound was 0.14. Same read-out and setting: next, `CN1C[C@@H](F)C[C@H]1c1nc(C(=O)NCc2ccc(F)cc2)c(O)c(=O)n1C`: 0.06.

(Values after ChEMBL document CHEMBL1148802, “Discovery and synthesis of HIV integrase inhibitors: development of potent and orally bioavailable N-methyl pyrimidones” (J Med Chem, 2007).)
